Apparent affinities of Ab-14 variants for a coronavirus HR2 peptide

All variants were tested on one target, the spike HR2 peptide PDVDLGDISGINAS (SARS-CoV-2).

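The parent was found by panning a naive human phage display library on the peptide. Library AAYL50 holds single substitutions and randomly drawn double and triple substitutions in the CDRs. The assay is AlphaSeq: two haploid yeast populations carry antibody and antigen on their surface. After mating in shaken culture at 30 °C for 16 h, diploids were selected and their barcode pairs sequenced. Each replicate has its own calibration line, from reference interactions of the BCL2 family. The assay was run in three technical replicates.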

Parent: Ab-14, a human scFv built as VH, the linker GGGGSGGGGSGGGGS, VL. Only the CDRs of the light chain vary.
VH: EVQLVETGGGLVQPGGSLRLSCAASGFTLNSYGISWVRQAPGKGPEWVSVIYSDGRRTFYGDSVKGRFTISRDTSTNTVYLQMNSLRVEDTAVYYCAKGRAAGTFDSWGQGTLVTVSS
VL: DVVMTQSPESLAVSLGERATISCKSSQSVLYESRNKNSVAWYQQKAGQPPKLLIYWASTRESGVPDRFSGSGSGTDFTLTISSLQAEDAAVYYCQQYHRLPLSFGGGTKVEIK

Each variant is given by its three light chain CDRs, as the data file delimits them; those of the parent are KSSQSVLYESRNKNSVA, WASTRES, QQYHRLPLS. Numbers give log10(Kd / nM), so 0 is 1 nM and 3 is 1 µM. Smaller is tighter. "nd" marks a missing value. The strain was present, yet no cells mated with the target were sequenced in that replicate, which points to weak or no binding. Parent in this assay: reference entry 0.65, copy in this library 1.68.

| CDR-L1 | CDR-L2 | CDR-L3 | log10 Kd, replicates | signal with controls |
|---|---|---|---|---|
| KSSQPVLYESRNGNSVA | WASTRES | QQYHRLPLS | 1.31 / 1.32 / 1.61 | 0 of 9 |
| KSSQSVLYNSRNKNSVA | WASTQES | QQYIRLPLS | 3.52 / 2.91 / nd | 1 of 9 (4.67) |
| KSSQSVLYESRNKNWVI | WASTRES | QQYYRLPLS | nd / nd / nd | 0 of 9 |
| KSSQSVLYESPNKNSVA | WASDRES | QQYHRLPLS | 2.62 / nd / nd | 2 of 9 (3.51) |
| KSSQSELYESRNKNSVA | WASTRES | QQYHRLPLS | 0.92 / 1.05 / 0.99 | 4 of 9 (4.84) |
| KSSQSVLYESRNKNSVA | WQSTRES | MQYHRLPLP | nd / nd / nd | 0 of 9 |
| KSSQSVLYESRNKNPVA | WASTRES | QTYHRLWLS | nd / nd / nd | 0 of 9 |
| KSSQSVLYCSRNKNSVA | WAETRES | QQYHRCPLS | nd / nd / nd | 0 of 9 |
| KSSQSVLYESRNKNSEC | WASTMES | QQYHRLPLS | 4.87 / nd / 3.69 | 2 of 9 (3.12) |
| KSSQSVIYESRVKNSVA | WASTRES | QQYHRLPCS | 2.02 / 1.87 / 2.26 | 6 of 9 (4.67) |
| KSSQLVHQESRNKNSVA | WASTRES | QQYHRLPLS | 0.56 / 0.82 / 0.69 | 1 of 9 (4.75) |
| KSSQSYLYESRNKNSVA | WASARWS | QQYHRLPLS | nd / nd / nd | 1 of 9 (3.66) |
| KSSQSVLYESRTKNSRL | WASTRES | QQYHRLPLS | nd / nd / nd | 1 of 9 (2.61) |
| KSSQSVLYESSNKNSVA | DASTRES | QQYWRLPLS | -0.12 / 0.18 / -0.04 | 0 of 9 |
| KSSQSVLYESRNVNSVA | WMSTRES | QRYHRLPLS | 1.92 / 2.58 / 2.47 | 3 of 9 (3.79) |
| KSSASVNYESRNKNSVA | WASTRDS | QQYHRLPLS | 0.90 / 1.09 / 1.17 | 1 of 9 (4.00) |
| KASQSVLVESRNKNSVA | WASTRES | QQYHRLPLR | 1.20 / 1.38 / 1.51 | 2 of 9 (5.47) |
| KSSQSVLYESRNKNSVA | WASFRES | QIYHELPLS | 2.40 / 2.21 / 2.16 | 5 of 9 (4.74) |
| KSSQSVLYESRNKESVA | WASTPES | LQYHRLPLS | 4.70 / 5.44 / nd | 2 of 9 (5.24) |
| KSSQSVLYEDRNKNSVA | WASTRES | QQYIRLPMS | 0.74 / 0.79 / 0.92 | 4 of 9 (3.88) |
| KSSQMVIYESRNANSVA | WASTRES | QQYHRLPLS | 1.39 / 1.82 / 1.81 | 1 of 9 (2.90) |
| KSNQSVLYESRNKNSVA | WASTRES | QQKHRLTLS | nd / nd / 4.12 | 2 of 9 (3.68) |
| RSSQSVLYEHRNKNSVD | WASTRES | QQYHRLPLS | 4.79 / 4.09 / nd | 5 of 9 (4.33) |
| ASSQSVLYESRNKNSVA | WASTRES | QLYTRLPLS | 1.06 / 1.31 / 1.08 | 0 of 9 |
| KSMQSVLYESDNKNSVA | GASTRES | QQYHRLPLS | nd / nd / 4.31 | 1 of 9 (4.99) |
| KSSQSVLYESKNKNSVA | WASTRES | QQYHRWPLS | nd / nd / nd | 0 of 9 |
| GSSQSVLYESRQKNSVA | WASTRES | QQYHRLPLS | nd / nd / nd | 0 of 9 |
| KSSGSALYESRWKNSVA | WASTRES | QQYHRLPLS | nd / 4.70 / nd | 4 of 9 (3.36) |
| KSSQSVLYESRNKNSVA | WASTREC | SQYHRLPDS | nd / nd / nd | 0 of 9 |
| KSSQDVLYESRNKNSVA | WASTRED | QQYHRLPLS | 0.24 / 0.40 / 0.26 | 1 of 9 (3.74) |
| KSSQSVLYESRRKNSVA | WAATRES | QQYHRLPWS | nd / nd / nd | 3 of 9 (4.35) |
| KSSQSVLYESRNKESVA | WFSTRES | QQQHRLPLS | nd / nd / nd | 1 of 9 (3.16) |
| KSSQSVLYEWRNKESVF | WASTRES | QQYHRLPLS | nd / nd / nd | 1 of 9 (4.92) |
| KMSQSVLYESRNKNSVA | WASTRES | QQYNRLPLC | 0.59 / 0.87 / 0.68 | 4 of 9 (4.50) |
| KSSQSVLYLSRNKNSVA | WAWTRES | QQYHRLPLS | nd / 4.13 / nd | 4 of 9 (3.88) |
| KSDQSVDYESRNKNSVA | WASTRES | KQYHRLPLS | nd / nd / nd | 1 of 9 (3.71) |
| KSSQNVLYERRNKNSVA | WASPRES | QQYHRLPLS | nd / nd / nd | 3 of 9 (3.25) |
| KSSQCVLYESRNKNSQA | KASTRES | QQYHRLPLS | nd / nd / nd | 0 of 9 |

The opening 4 entries, copied out:

| CDR-L1 | CDR-L2 | CDR-L3 | log10 Kd, replicates | signal with controls |
|---|---|---|---|---|
| KSSQPVLYESRNGNSVA | WASTRES | QQYHRLPLS | 1.31 / 1.32 / 1.61 | 0 of 9 |
| KSSQSVLYNSRNKNSVA | WASTQES | QQYIRLPLS | 3.52 / 2.91 / nd | 1 of 9 (4.67) |
| KSSQSVLYESRNKNWVI | WASTRES | QQYYRLPLS | nd / nd / nd | 0 of 9 |
| KSSQSVLYESPNKNSVA | WASDRES | QQYHRLPLS | 2.62 / nd / nd | 2 of 9 (3.51) |

Three control strains display no target. For library AAYL50, 18% of the pairings with them gave a signal, with a median of 4.19 and one signal in twenty below 2.99, so weak values seen in few replicates may be background. For each scFv, signals with the empty controls are counted beside the result, with their mean in brackets.

Reference: Engelhart et al. 2022, doi:10.1038/s41597-022-01779-4. File: FLAb, binding data.